These results are taken from patent US20070298105A1, “METHODS OF TREATING CONDITIONS BY SUSTAINED RELEASE ADMINISTRATION OF BENZIMIDAZOLE DERIVATIVES” (priority 2006, published 2007).

Like-named read-outs stand apart in the source and are kept apart here.

The series can be described thus: Colonic intubation study: plasma pharmacokinetics of rabeprazole and esomeprazole. It is filed as in vivo. The conditions noted are these: male, human, po, 40 mg, TRT E: esomeprazole 40 mg oral tablet. Here is the method: A single-dose, open-label, partially randomized, five-treatment, five-period, crossover pilot study was performed in healthy males to determine relative pharmacokinetics of rabeprazole, and comparators when dosed either orally or colonically. The study was a single dose study with blood sampling up to 24 hours following initiation. […] Colonic dosing occurred using a nasoenteral tube. Treatment C was a single 20 mg dose of rabeprazole sodium oral enteric coated tablets dosed orally. Treatment D was placebo (200 mL of water) dosed orally. Treatment E was a single 40 mg dose of esomeprazole magnesium trihydrate dosed as an oral film-coated tablet. The following rabeprazole and esomeprazole pharmacokinetic (PK) parameters were determined: maximum plasma concentration [Cmax], time to maximum concentration [Tmax], apparent elimination rate constant [k] and half-life [t1/2], area under the plasma concentration-time profile (AUC) to time t [AUCt], where t is the time of the last quantifiable plasma concentration, and AUC to infinity [AUCinf]. For subjects whose apparent elimination rate constant [k] could not be properly determined, the AUC to infinity [AUCinf]) was calculated based on the median apparent elimination constant [k] of the subjects with available t1/2 values in the same treatment period. […] The intragastric pH profile were determined. […]

A word on the Tmax: it is the time at which the peak concentration occurs. On to `COc1ccc2nc([S@@+]([O-])Cc3ncc(C)c(OC)c3C)[nH]c2c1` [Esomeprazole], for which the Tmax reads like this: (N = 19, read-out: Tmax (median)) 1.5 h; (subset N = 14, read-out: Tmax (median)) 1.5 h.
